Test results: patent US9884844B2 (priority 2012, dated 2018)

Protein sequences, listed by entry. Tags and fused reporters are not part of them.
UniProt P35372, whole entry: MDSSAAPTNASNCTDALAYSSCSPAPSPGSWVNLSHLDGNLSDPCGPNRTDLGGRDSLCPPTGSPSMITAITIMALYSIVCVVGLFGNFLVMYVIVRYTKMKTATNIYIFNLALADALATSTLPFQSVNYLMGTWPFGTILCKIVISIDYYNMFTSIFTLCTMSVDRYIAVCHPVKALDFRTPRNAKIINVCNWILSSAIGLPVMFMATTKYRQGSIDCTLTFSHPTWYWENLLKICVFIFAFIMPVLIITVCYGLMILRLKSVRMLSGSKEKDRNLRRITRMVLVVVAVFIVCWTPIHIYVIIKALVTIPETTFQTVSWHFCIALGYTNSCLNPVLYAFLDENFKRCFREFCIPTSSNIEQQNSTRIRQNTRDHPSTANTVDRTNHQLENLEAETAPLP

Each molecule was assayed against μ-opioid receptor (Homo sapiens, UniProt P35372).

Row | SMILES | pEC50
1 | CNC(=O)CC1(OC)C(=O)N(C2CCN(C3Cc4cccc5cccc3c45)CC2)c2ccccc21 (centres unmarked) | > 7.00
2 | CNC(=O)CCC1(C)C(=O)N(C2CCN(C3Cc4cccc5cccc3c45)CC2)c2ccccc21 (centres unmarked) | > 7.00
3 | CNC(=O)C[C@@H]1C(=O)N(C2CCN(C3Cc4cccc5cccc3c45)CC2)c2ccccc21 (some centres unmarked) | > 7.00
4 | CNC(=O)CC1(C)C(=O)N(C2CCN([C@H]3c4cccc5cccc(c45)[C@@H]3OC)CC2)c2ccccc21 (some centres unmarked) | > 7.00
5 | CNC(=O)CCC1(O)C(=O)N(C2CCN(C3Cc4cccc5cccc3c45)CC2)c2ccccc21 (centres unmarked) | > 7.00
6 | CNC(=O)CC1(C)C(=O)N(C2CCN(CCC(Oc3cc(OC)ccc3Cl)C(C)C)CC2)c2ccccc21 (centres unmarked) | > 7.00
7 | CNC(=O)C[C@]1(O)C(=O)N(C2CCN([C@@H]3Cc4cccc5cccc3c45)CC2)c2ccccc21 | 6.00 to 7.00
8 | CNC(=O)C[C@@]1(C)C(=O)N(C2CCN([C@H]3c4cccc5cccc(c45)C3(F)F)CC2)c2ccccc21 | 6.00 to 7.00
9 | O=C1NCC2(N1)C(=O)N(C1CCN(C3Cc4cccc5cccc3c45)CC1)c1ccccc12 (centres unmarked) | > 7.00
10 | CN1C(=O)NCC12C(=O)N(C1CCN(C3Cc4cccc5cccc3c45)CC1)c1ccccc12 (centres unmarked) | > 7.00
11 | CNC(=O)[C@H]1CC12C(=O)N(C1CCN(C3Cc4cccc5cccc3c45)CC1)c1ccccc12 (some centres unmarked) | > 7.00
12 | CNC(=O)C(C)C1(O)C(=O)N(C2CCN(C3Cc4cccc5cccc3c45)CC2)c2ccccc21 (centres unmarked) | > 7.00
13 | CNC(=O)C[C@]1(C)C(=O)N(C2CCN([C@@]3(C)CCCc4ccccc43)CC2)c2ccccc21 | > 7.00
14 | CNC(=O)CC1(O)C(=O)N(C2CCN(C3c4cccc5cccc(c45)C3C)CC2)c2ccccc21 (centres unmarked) | > 7.00
15 | CNC(=O)C[C@@]1(C)C(=O)N(C2CCN([C@@]3(C)Cc4cccc5cccc3c45)CC2)c2ccccc21 (single isomer, unassigned) | > 7.00
16 | CNC(=O)CC1(O)C(=O)N(C2CCN(C3Cc4cccc5ccc(OC)c3c45)CC2)c2ccccc21 (centres unmarked) | > 7.00
17 | CNC(=O)CC1C(=O)N(C2CCN(CCC(Oc3cc(OC)ccc3Cl)C(C)C)CC2)c2ccccc21 (centres unmarked) | > 7.00
18 | CNC(=O)C1CC12C(=O)N(C1CCN(C3Cc4cccc5cccc3c45)CC1)c1ccccc12 (centres unmarked) | 6.00 to 7.00
19 | CNC(=O)CC1(C)C(=O)N(C2CCN(C3(C)Cc4cccc5cccc(c45)C3)CC2)c2ccccc21 (centres unmarked) | > 7.00
20 | COCCC1(C)C(=O)N(C2CCN([C@@H]3Cc4cccc5cccc3c45)CC2)c2ccccc21 (some centres unmarked) | > 7.00
21 | CNC(=O)C[C@@]1(C)C(=O)N(C2CCN([C@@]3(C)CCc4ccccc43)CC2)c2ccccc21 | > 7.00
22 | CNC(=O)C[C@@]1(C)C(=O)N(C2CCN([C@H]3Cc4cccc5cccc3c45)CC2)c2ccccc21 | 6.00 to 7.00
23 | CNC(=O)C[C@]1(C)C(=O)N(C2CCN([C@@H]3Cc4cccc5cccc3c45)CC2)c2ccccc21 | > 7.00
24 | CNC(=O)C(C)C1(F)C(=O)N(C2CCN(C3Cc4cccc5cccc3c45)CC2)c2ccccc21 (centres unmarked) | > 7.00
25 | CNC(=O)C[C@@]1(O)C(=O)N(C2CCN([C@H]3Cc4cccc5cccc3c45)CC2)c2ccccc21 | 6.00 to 7.00

Row | SMILES | pEC50
26 | COc1ccc(Cl)c(OC(CCN2CCC(N3C(=O)C(O)(CC(N)=O)c4ccccc43)CC2)C(C)C)c1 (centres unmarked) | > 7.00
27 | CNC(=O)C[C@]1(C)C(=O)N(C2CCN([C@@]3(C)CCc4ccccc43)CC2)c2ccccc21 | > 7.00
28 | COC(=O)CC1C(=O)N(C2CCN(C3(C)CCCc4ccccc43)CC2)c2ccccc21 (centres unmarked) | > 7.00
29 | NC(=O)[C@H]1CC12C(=O)N(C1CCN(C3Cc4cccc5cccc3c45)CC1)c1ccccc12 (some centres unmarked) | 6.00 to 7.00
30 | CNC(=O)CC1(C)C(=O)N(C2CCN(C3(C)Cc4cccc5cccc3c45)CC2)c2ccccc21 (centres unmarked) | > 7.00
31 | CNC(=O)CC1C(=O)N(C2CCN(C3CC[C@H]4CCCc5cccc3c54)CC2)c2ccccc21 (some centres unmarked) | > 7.00
32 | NC(=O)CC1C(=O)N(C2CCN(C3Cc4cccc5cccc3c45)CC2)c2ccccc21 (centres unmarked) | > 7.00
33 | CNC(=O)CC1(C)C(=O)N(C2CCN([C@H]3c4cccc5cccc(c45)[C@@H]3O)CC2)c2ccccc21 (some centres unmarked) | > 7.00
34 | O=C1CC2(CN1)C(=O)N(C1CCN(C3Cc4cccc5cccc3c45)CC1)c1ccccc12 (centres unmarked) | > 7.00
35 | CNC(=O)CC1(C)C(=O)N(C2CCN(C3(C)CCCc4ccccc43)CC2)c2ccccc21 (centres unmarked) | > 7.00
36 | NC(=O)C1CC12C(=O)N(C1CCN(C3Cc4cccc5cccc3c45)CC1)c1ccccc12 (centres unmarked) | > 7.00
37 | CNC(=O)CC1(O)C(=O)N(C2CCN(C3(C)CCCc4ccccc43)CC2)c2ccccc21 (centres unmarked) | > 7.00
38 | CNC(=O)CC1(O)C(=O)N(C2CCN(C3(C)CCc4ccccc43)CC2)c2ccccc21 (centres unmarked) | > 7.00
39 | CNC(=O)C[C@@]1(O)C(=O)N(C2CCN([C@@H]3Cc4cccc5cccc3c45)CC2)c2ccccc21 | > 7.00
40 | CC1(CC(N)=O)C(=O)N(C2CCN(C3Cc4cccc5cccc3c45)CC2)c2ccccc21 (centres unmarked) | > 7.00
41 | CNC(=O)C[C@]1(C)C(=O)N(C2CCN([C@H]3c4cccc5cccc(c45)C3(F)F)CC2)c2ccccc21 | > 7.00
42 | COCCC1(C)C(=O)N(C2CCN([C@H]3c4cccc5cccc(c45)C3O)CC2)c2ccccc21 (some centres unmarked) | > 7.00
43 | COc1ccc(Cl)c(OC(CCN2CCC(N3C(=O)C(CC(N)=O)c4ccccc43)CC2)C(C)C)c1 (centres unmarked) | > 7.00
44 | CNC(=O)CC1(O)C(=O)N(C2CCN(C3c4cccc5cccc(c45)[C@@H]3C)CC2)c2ccccc21 (some centres unmarked) | 6.00 to 7.00
45 | CNC(=O)CC1(O)C(=O)N(C2CCN(C3(C)Cc4cccc5cccc3c45)CC2)c2ccccc21 (centres unmarked) | > 7.00
46 | CNC(=O)C[C@H]1C(=O)N(C2CCN(C3Cc4cccc5cccc3c45)CC2)c2ccccc21 (some centres unmarked) | > 7.00
47 | CNC(=O)C[C@]1(O)C(=O)N(C2CCN([C@H]3Cc4cccc5cccc3c45)CC2)c2ccccc21 | 6.00 to 7.00
48 | CNC(=O)CC1C(=O)N(C2CCN(C3(C)CCCc4ccccc43)CC2)c2ccccc21 (centres unmarked) | > 7.00
49 | CNC(=O)C[C@]1(C)C(=O)N(C2CCN([C@@]3(C)Cc4cccc5cccc3c45)CC2)c2ccccc21 (single isomer, unassigned) | > 7.00
50 | CNC(=O)CC1(O)C(=O)N(C2CCN(C3Cc4cccc5cccc3c45)CC2)c2ccccc21 (centres unmarked) | 6.00 to 7.00

pEC50: −log10 of the molar value.
